According to ChEMBL document CHEMBL1938395, “New benzimidazole derivatives as antiplasmodial agents and plasmepsin inhibitors: synthesis and analysis of structure-activity relationships” (Bioorg Med Chem Lett, 2012):

Experiment: Selectivity ratio of IC50 for human cathepsin D to IC50 for Plasmodium falciparum plasmepsin-2

`O=C(Cn1c(-c2ccccn2)nc2ccccc21)c1ccc(F)cc1` gave a Ratio IC50 of 3.
